Screening data: PubChem BioAssay, National Center for Advancing Translational Sciences (NCATS)
Compounds with a hit are over-represented: about 16% of the library has one in this group of screens.
uPA generation: blocks generation of uPA at the cell surface; cell surface uPA generation assay, qHTS; Potency, µM (top dose mostly 38.3 µM), without a hit: top-dose activity change, negative = inhibition, usual class: inhibitors; 330,000 compounds, 0.31% hits; active means well fitted inhibition curve with a large enough effect; inconclusive means small, poorly fitted or top-dose-only effect; inactive means no such curve, though single readings can be large or run the other way; tested in mouse RAW 264.7 cells; further: potency means the concentration at half of the fitted maximal effect; on the % scale 0 is the no-effect control and ±100 the full control effect; nearly all actives have a fitted effect of over 55% in size
TDP1 cell noCPT: qHTS for Inhibitors of human tyrosyl-DNA phosphodiesterase 1 (TDP1): qHTS in cells in absence of CPT | DT40 Tdp1-/- hTDP1 cells, no CPT, ATP luminescence, 48 h | Potency, µM (doses to about 46.2 µM), without a hit: top-dose activity change, negative = growth inhibition, actives largely listed as inhibitors | 420,000 compounds, 15% hits; further: potency means the concentration at half of the fitted maximal effect; on the % scale 0 is the no-effect control and ±100 the full control effect; nearly all actives have a fitted effect of over 55% in size
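Luminescent ATP content (CellTiter-Glo) served as the growth readout. Knockout chicken DT40 cells expressing human TDP1 were exposed to compounds without camptothecin for a minimum 48 hr at 37 °C.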
DT40 TDP1 CPT: growth inhibition of DT40 Tdp1-/-;hTDP1 cells with camptothecin (screen for TDP1 inhibitors) | AID 686979 | 420,000 compounds, 12% hits | chicken DT40 Tdp1-/-;hTDP1 cells + 20 nM CPT, ATP luminescence, 48 h | Potency, µM (highest dose often 46.2 µM), for inactives: at the top dose activity change, negative = growth inhibition, most hits filed as inhibitors; further: potency means the concentration at half of the fitted maximal effect; on the % scale 0 is the no-effect control and ±100 the full control effect; nearly all actives have a fitted effect of over 55% in size
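Chicken DT40 Tdp1-/- cells stably complemented with human TDP1 were seeded at 400 cells/well in medium containing 20 nM camptothecin, exposed to pin-transferred compounds, and grown at 37 °C for at least 48 hr. Viability was read as ATP luminescence.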
TDP1 inh: blocks human tyrosyl-DNA phosphodiesterase 1. 350,000 compounds, 0.28% hits. recombinant TDP1, AlphaScreen DNA substrate cleavage. Q9NUW8. AID 485290. Potency, µM (doses to about 130 µM), inactives show at the highest dose activity change, negative = inhibition, actives largely listed as inhibitors; further: potency means the concentration at half of the fitted maximal effect; on the % scale 0 is the no-effect control and ±100 the full control effect; nearly all actives have a fitted effect of over 40% in size
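E. coli-derived human Tdp1, 1 nM final. Cpd preinc 15 min RT; substrate 15 nM final, 5 min RT; AS bead mix 10 ug/ml final, 10 min RT. Signal loss = tyrosine-FITC cleavage. No-enzyme wells = max signal.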
miR-21 FLuc: miR-21 reporter, rising signal | HeLa miR-21 FLuc reporter, luciferase, 48 h | Potency, µM (highest dose often 38.3 µM), for inactives: at the top dose reporter change, positive = more light | 340,000 tested, under 10 active | AID 2288; active = well fitted rising curve with a large enough effect; inconclusive = small, poorly fitted or top-dose-only effect; inactive = no such curve, though single readings can be large or run the other way;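 further: % of control where 0% means no effect; miR-21 action dims this reporter so a rising signal means less miR-21 action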
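HeLa cells endogenously expressing miR-21, stably carrying CMV-driven firefly luciferase with a downstream miR-21 binding site, 2000 cells/well. Titrations up to approximately 40 uM, 48 hours; luciferase luminescence read.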
* = called active by the depositor; u = inconclusive; x = not tested or not shown; [ ] = another dose, or the depositor's remark. Unless noted, the call rests on the fitted dose curve; in most records, active means well fitted curve in the direction sought with a large enough effect; inconclusive means small, poorly fitted or top-dose-only effect, or another doubt; inactive means no such curve, though single readings can be large; an effect the other way counts as inactive or inconclusive.

#1 CCc1c(C2(O)CCCCC2)[nH]c2ccc(C(F)(F)F)cc12
#2 CNCCC(Oc1ccccc1C)c1ccccc1 (stereo not given)
#3 COc1ccc2c(CNCCc3ccco3)c(C(=O)O)n(Cc3ccc(C)cc3)c2c1
#4 COc1ccc2c(CNCc3cccs3)c(C(=O)O)n(Cc3ccccc3C)c2c1
#5 COc1ccc2c(CNCCc3cccs3)c(C(=O)O)n(Cc3ccccc3C)c2c1
#6 COc1ccc2c(CNCc3cccs3)c(C(=O)O)n(Cc3ccccc3)c2c1
Compound | 1 | 2 | 3 | 4 | 5 | 6
uPA generation | -16% | x | x | x | x | x
TDP1 cell noCPT | u | x | u | 2.9µM* | 5.2µM* | u
DT40 TDP1 CPT | 18µM* | x | -19% | u | 8.2µM* | -9%
TDP1 inh | x | 5%[56.1 µM] | 5% | 5% | 3% | 5%
miR-21 FLuc | 28% | x | -8% | -1% | 0% | -13%

#7 COC(=O)C1C(c2ccc(Br)cc2)Nc2nnc(C(F)(F)F)n2C1(C)O (stereo not given)
#8 N/C(Cc1ccc(Cl)cc1)=N\OC(=O)c1ccc2ccccc2c1
#9 N/C(Cc1ccc(Cl)cc1)=N\OC(=O)c1cccc2ccccc12
#10 Cc1cccc(CC(=O)N2CCCC2)c1
#11 COc1ccc(C)cc1NC(=O)N1CC(C)Sc2ccccc21 (stereo not given)
#12 CN(C)c1ccc(/C=N/N=C2/NC(=O)/C(=C/c3ccc([N+](=O)[O-])cc3)S2)cc1
Compound | 7 | 8 | 9 | 10 | 11 | 12
uPA generation | -2% | -1% | -18% | 0% | x | -6%
TDP1 cell noCPT | -29% | u | 29µM* | 5% | u | 16µM*
DT40 TDP1 CPT | 0% | u | u | 2% | u | u
TDP1 inh | 8% | 3% | 4% | 1% | -1% | 7%
miR-21 FLuc | 0% | -9% | u | -8% | 17% | 3%

#13 CN(C)/C=C/C=C1C(=O)CCCC1=O
#14 C=CCSC1=N/C(=C\c2ccc(C(=O)O)cc2)C(=O)S1
#15 CCSC1=N/C(=C\c2ccc(C(=O)O)cc2)C(=O)S1
#16 C=CCNC(=S)Nc1sc2c(c1C(=O)OCC)CC(C)(CC)OC2 (stereo not given)
#17 CCc1nc(CN2CCOc3ccc(C(O)C4CCCCC4)cc3C2)c(C)[nH]1 (stereo not given)
#18 Cc1ccc(C2N(c3ccc(F)cc3)C(=O)C3CCCN32)cc1 (stereo not given)
Compound | 13 | 14 | 15 | 16 | 17 | 18
uPA generation | 0% | 7% | 6% | -2% | x | 9%
TDP1 cell noCPT | 1% | -6% | -9% | u | 18µM* | -12%
DT40 TDP1 CPT | 2% | 1% | -12% | -27% | u | 2%
TDP1 inh | 22µM* | 28µM* | -14% | 5% | x | 7%
miR-21 FLuc | -3% | -1% | -9% | -6% | x | 0%

#19 COc1ccc(/C=N/Nc2cc(C)nc(-n3nc(C)cc3C)n2)c(OC)c1
#20 Cc1cc(N/N=C/c2ccc(F)cc2)nc(-n2nc(C)cc2C)n1
#21 COc1ccc(/C=N/Nc2cc(C)nc(N3CCOCC3)n2)cc1
#22 CCOc1cc(/C=N/Nc2cc(C)nc(-n3nc(C)cc3C)n2)ccc1O
#23 Cc1c2cnn(CC(=O)NCCN3CCOCC3)c(=O)c2c(C)n1Cc1ccccc1F
#24 COc1cc(-c2nc(Cn3nnc(C(=O)Nc4ccc(C)cc4C)c3C)c(C)o2)cc(OC)c1OC
Compound | 19 | 20 | 21 | 22 | 23 | 24
uPA generation | -10% | -3% | 3% | u | 9% | x
TDP1 cell noCPT | 1.6µM* | 3.7µM* | u | 2.3µM* | 6% | 21µM*
DT40 TDP1 CPT | 1.5µM* | 2.9µM* | -8% | 2.6µM* | -2% | u
TDP1 inh | 11% | 1% | 0% | 79µM* | x | 3%
miR-21 FLuc | 22% | u | -7% | u | x | 4%

#25 COc1ccc(NC(=O)COc2ccccc2C)cc1S(=O)(=O)N1CCCCC1
#26 COc1ccc(NC(=O)COc2ccccc2C(N)=O)cc1S(=O)(=O)N1CCCCC1
#27 Cc1ccc(OCC(=O)Nc2ccc(C)c(S(=O)(=O)N3CCCCCC3)c2)c([N+](=O)[O-])n1
#28 CCOc1ccc(C(=O)CCC(=O)Nc2ccc(C)c(S(=O)(=O)N3CCCCC3)c2)cc1
#29 Cc1ccc(NC(=O)COc2ccccc2C(N)=O)cc1S(=O)(=O)N1CCCCCC1
#30 Cc1ccc(NC(=O)COc2cccc(C)c2C)cc1S(=O)(=O)N1CCCCCC1
Compound | 25 | 26 | 27 | 28 | 29 | 30
uPA generation | -7% | x | -10% | 6% | -27% | -4%
TDP1 cell noCPT | 8.2µM* | u | u | 16µM* | 3.7µM* | 18µM*
DT40 TDP1 CPT | u | -10% | u | -15% | 4.1µM* | u
TDP1 inh | -17% | x | 7% | -2% | 2% | -3%[0.505 µM]
miR-21 FLuc | x | x | 0% | x | x | x

#31 CC(=O)c1ccc(OCCCC(=O)Nc2ccc(C)c(S(=O)(=O)N3CCCCC3)c2)cc1
#32 O=S(=O)(c1cccc(-c2csc(-c3cccnc3)n2)c1)N1CCOCC1
#33 COc1ccc(NC(=O)CN(C)CC(=O)Nc2ccc(C)c(S(=O)(=O)N3CCCCC3)c2)cc1
#34 Cc1ccc(NC(=O)CCl)cc1S(=O)(=O)N1CCCCCC1
#35 CCc1noc(C)c1C(=O)Nc1ccc(C)c(S(=O)(=O)N2CCCCCC2)c1
#36 COCCNCC(=O)Nc1ccc(C)c(S(=O)(=O)N2CCCCC2)c1
Compound | 31 | 32 | 33 | 34 | 35 | 36
uPA generation | -5% | -1% | -10% | -17% | 3% | -4%
TDP1 cell noCPT | u | u | u | 2.6µM* | u | -3%
DT40 TDP1 CPT | u | u | u | 2.1µM* | 16µM* | 7%
TDP1 inh | 0% | 5% | 2% | 3% | x | -3%
miR-21 FLuc | x | -10% | x | u | x | -6%

A draw from above in order of molar mass, descending:
#33 COc1ccc(NC(=O)CN(C)CC(=O)Nc2ccc(C)c(S(=O)(=O)N3CCCCC3)c2)cc1
#31 CC(=O)c1ccc(OCCCC(=O)Nc2ccc(C)c(S(=O)(=O)N3CCCCC3)c2)cc1
#32 O=S(=O)(c1cccc(-c2csc(-c3cccnc3)n2)c1)N1CCOCC1
#36 COCCNCC(=O)Nc1ccc(C)c(S(=O)(=O)N2CCCCC2)c1
Compound | 33 | 31 | 32 | 36
uPA generation | -10% | -5% | -1% | -4%
TDP1 cell noCPT | u | u | u | -3%
DT40 TDP1 CPT | u | u | u | 7%
TDP1 inh | 2% | 0% | 5% | -3%
miR-21 FLuc | x | x | -10% | -6%

Later entries:
#37 Cc1ccc(NC(=O)CNc2ccccc2N2CCCC2=O)cc1S(=O)(=O)N1CCCCC1
#38 Cc1ccc(NC(=O)COc2ccc(N(C)C(=O)C(C)(C)C)cc2)cc1S(=O)(=O)N1CCCCC1
#39 CCc1noc(C)c1C(=O)Nc1cc(S(=O)(=O)N2CCCCC2)ccc1N(C)C
#40 COC(=O)C1(C(C)=O)CC2=CC[C@@H]3C(=O)N(c4ccccc4)C(=O)[C@@H]3[C@@H]2Cc2ccccc2[C@@H]1C[N+](=O)[O-] (stereo not given in full)
#41 Cc1ccc(C)c(CN2CCc3nnc(CNC(=O)c4cc(C)oc4C)n3CC2)c1
#42 COc1ccc(NC(=O)CN(Cc2ccco2)Cc2ccco2)cc1S(=O)(=O)N1CCCCC1
Compound | 37 | 38 | 39 | 40 | 41 | 42
uPA generation | -2% | u | 0% | x | x | -10%
TDP1 cell noCPT | 15µM* | 2.3µM* | u | x | -20% | u
DT40 TDP1 CPT | 16µM* | 8.2µM* | u | x | u | 23µM*
TDP1 inh | 3% | 2% | x | 3% | x | 3%[56.1 µM]
miR-21 FLuc | x | x | x | x | x | x

#43 Cc1ccc(NC(=O)COC(=O)c2cccc(C)c2[N+](=O)[O-])cc1S(=O)(=O)N1CCCCC1
#44 Cc1ccc(NC(=O)/C=C/c2ccco2)cc1S(=O)(=O)N1CCCCCC1
#45 CSc1cccc(NC(=O)c2nnn(CC(=O)Nc3cc(C)cc(C)c3)c2N)c1
#46 Nc1c(C(=O)NCc2ccccc2)nnn1Cc1ccccc1
#47 COc1cccc(CNC(=O)c2nnn(CC(=O)Nc3ccc(Br)cc3)c2N)c1
Compound | 43 | 44 | 45 | 46 | 47
uPA generation | 1% | 0.89µM* | -2% | -12% | 0%
TDP1 cell noCPT | u | 9.2µM* | 6.5µM* | -28% | 5.2µM*
DT40 TDP1 CPT | 16µM* | 21µM* | u | -14% | 10µM*
TDP1 inh | 3% | x | 1% | 5% | -6%
miR-21 FLuc | x | x | -5% | -12% | 6%
